Results on two molecules are retold here after publication PMC12823440, “Inhibitors supercharge kinase turnover through native proteolytic circuits” (Nature, 2025).

By UniProt entry, the sequences of proteins in these tests, tags left out. Where a name states a change or a piece, a line headed by the entry shows the natural chain unless it says otherwise. Residues count along the entry.
UniProt P42685: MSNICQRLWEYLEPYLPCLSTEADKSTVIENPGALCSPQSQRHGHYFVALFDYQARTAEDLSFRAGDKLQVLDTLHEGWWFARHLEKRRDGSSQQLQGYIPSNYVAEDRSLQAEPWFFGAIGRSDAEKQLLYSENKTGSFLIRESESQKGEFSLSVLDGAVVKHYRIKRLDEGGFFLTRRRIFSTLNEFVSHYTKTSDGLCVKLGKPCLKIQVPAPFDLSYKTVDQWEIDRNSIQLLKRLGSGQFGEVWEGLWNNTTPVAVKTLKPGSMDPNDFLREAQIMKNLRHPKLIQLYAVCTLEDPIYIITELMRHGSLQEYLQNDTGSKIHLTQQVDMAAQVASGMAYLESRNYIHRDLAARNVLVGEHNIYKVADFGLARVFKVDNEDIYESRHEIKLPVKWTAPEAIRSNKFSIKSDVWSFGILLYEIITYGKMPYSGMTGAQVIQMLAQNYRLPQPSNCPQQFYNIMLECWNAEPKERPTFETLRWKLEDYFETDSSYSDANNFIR
UniProt P07948, 2-512: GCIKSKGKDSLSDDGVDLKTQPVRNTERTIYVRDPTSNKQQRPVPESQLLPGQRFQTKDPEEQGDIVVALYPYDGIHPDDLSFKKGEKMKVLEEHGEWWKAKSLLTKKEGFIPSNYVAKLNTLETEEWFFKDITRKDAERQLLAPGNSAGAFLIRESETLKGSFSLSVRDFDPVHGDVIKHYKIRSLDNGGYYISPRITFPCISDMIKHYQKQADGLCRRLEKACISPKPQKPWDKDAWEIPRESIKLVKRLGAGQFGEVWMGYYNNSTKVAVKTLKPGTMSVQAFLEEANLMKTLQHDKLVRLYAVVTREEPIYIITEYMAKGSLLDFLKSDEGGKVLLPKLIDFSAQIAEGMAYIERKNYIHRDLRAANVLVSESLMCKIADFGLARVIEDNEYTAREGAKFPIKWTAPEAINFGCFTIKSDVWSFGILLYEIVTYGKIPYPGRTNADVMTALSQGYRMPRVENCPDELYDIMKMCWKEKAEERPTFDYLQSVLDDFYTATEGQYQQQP

For assay [1], the target named is T1, FRK (Homo sapiens, UniProt P42685). Put plainly: biochemical.
Another assay addresses T2, LYN (Homo sapiens, UniProt P07948).
T2 construct: recombinant LYN
Put plainly: Z'-LYTE kinase inhibition assay (SelectScreen), ATP at apparent KM. It is filed as biochemical.

Assay [2] concerns the target T1, FRK. As to the kind of experiment: Kinobead competition chemoproteomics in cell lysate. It is filed as biochemical.

As usually defined, the Kd is the free concentration of one partner at which half of the binding sites on the other are occupied at equilibrium, for simple one-to-one binding. A low value points to higher affinity. The term IC50 denotes the concentration that inhibits the measured activity by half.

Regarding `COc1ccc2c(C(=O)Nc3ccc(NC(=O)c4nn(C5CCN(C(=O)CC(C)(C)C#N)CC5)c5ccc(F)cc45)cc3Cl)cnn2c1` [SI-3], at FRK [1], the Kd came to 11.4 µM.

As to SRC inhibitor 3 [SI-3], the IC50 on LYN came out at 0.0567 µM. Binding on FRK [2] was characterised by a dissociation constant (Kd) of 11.4 µM.
